The source of these data is publication PMC5467183 (ACS Medicinal Chemistry Letters, 2017).

As usually defined, the IC50 is the concentration that gives 50% inhibition.

The structures appear in SMILES notation.

System in the first data set: not given
Test: not given
The following applies: human hepatocytes.
Turning to `CN1CCN(c2ccc(Nc3cc(-c4cccc(N5CCc6c(sc7c6CC(C)(C)C7)C5=O)c4CO)cn(C)c3=O)nc2)CC1` [compound 15], the “HHep (projected hepatic clearance)” value was under 6.2.

System in another data set: not given
Test: not given
The following applies: rat hepatocytes.
For the compound `CN1CCN(c2ccc(Nc3cc(-c4cccc(N5CCc6c(sc7c6CC(C)(C)C7)C5=O)c4CO)cn(C)c3=O)nc2)CC1` [compound 15], the “RHep (projected hepatic clearance)” value is reported as under 10. Turning to `Cn1cc(-c2cccc(N3CCc4c(sc5c4CC(C)(C)C5)C3=O)c2CO)cc(Nc2ccc(N3CCN(C4COC4)CC3)cn2)c1=O` [compound 16], the “RHep (projected hepatic clearance)” value is on record as under 10. The same measure, in the same setting: for `Cn1cc(-c2cccc(N3CCc4c(sc5c4CC(C)(C)C5)C3=O)c2CO)cc(Nc2ccncn2)c1=O` [compound 7] the value was under 10.

System in a further data set: not given
Test: not given
The following applies: MDCK, A to B.
As for `Cn1cc(-c2cccc(N3CCc4c(sc5c4CC(C)(C)C5)C3=O)c2CO)cc(Nc2ccc(N3CCN(C4COC4)CC3)cn2)c1=O` [compound 16], the Perm. result is “MOD (MOD: 1–10 (10^–6 cm/s))”.

Take `Cn1cc(-c2cccc(N3CCc4c(sc5c4CC(C)(C)C5)C3=O)c2CO)cc(Nc2ccncn2)c1=O` [compound 7]: the Perm. result is “MOD (MOD: 1–10 (10^–6 cm/s))”.

A further data set has as its system CD86 surface expression on B cells. The data set is described as follows: cells. The following applies: Mus musculus, B-cell, read-out: CD86 IC50.
Consider `Cn1cc(-c2cccc(N3CCn4c(cc5c4CC(C)(C)C5)C3=O)c2CO)cc(Nc2ccncn2)c1=O` [compound 8], for which the IC50 is under 100 nM. In the case of `Cn1cc(-c2cccc(N3CCc4c(sc5c4CCCC5)C3=O)c2CO)cc(Nc2ccncn2)c1=O` [2b], the IC50 is under 100 nM.

The data set is the same for the next values; noted with them: Mus musculus, B-cell, read-out: IC50 CD86.
In the case of `Cn1cc(-c2cccc(N3CCc4c(cc5n4CCCC5)C3=O)c2CO)cc(Nc2ccncn2)c1=O` [compound 4], the IC50 was 480 nM. Regarding `CN1CCN(c2ccc(Nc3cc(-c4cccc(N5CCc6c(sc7c6CC(C)(C)C7)C5=O)c4CO)cn(C)c3=O)nc2)CC1` [compound 15], the IC50 came to 25 nM. For `Cn1cc(-c2cccc(N3CCc4c(sc5c4CC(C)(C)C5)C3=O)c2CO)cc(Nc2ccc(N3CCN(C4COC4)CC3)cn2)c1=O` [compound 16], the IC50 is 6 nM. Still for that read-out and setting: for `Cn1cc(-c2cccc(N3CCOc4cc(C(C)(C)C)ccc4C3=O)c2CO)cc(Nc2ccncn2)c1=O` [compound 14] the value was 230 nM.

Turning to `Cn1cc(-c2cccc(N3CCn4c(nc5c4CCCC5)C3=O)c2CO)cc(Nc2ccncn2)c1=O` [compound 5], the IC50 worked out at 48600 nM.

For the compound `Cn1cc(-c2cccc(N3CCn4c(cc5c4CC(C)(C)C5)C3=O)c2CO)cc(Nc2ccncn2)c1=O` [compound 8], the IC50 is 57 nM. On the same count and under the same terms, for `Cn1cc(-c2cccc(N3CCn4c(cc5c4CCCC5)C3=O)c2CO)cc(Nc2ccncn2)c1=O` [compound 3] the value was 200 nM; for `Cn1cc(-c2cccc(N3CCNc4cc(C(C)(C)C)ccc4C3=O)c2CO)cc(Nc2ccncn2)c1=O` [compound 13], 171 nM. The same measure, in the same setting: the figure for `Cn1cc(-c2cccc(N3CCc4c(nc5n4CCCC5)C3=O)c2CO)cc(Nc2ccncn2)c1=O` [compound 6] is over 50000 nM; for `Cn1cc(-c2cccc(N3CCc4c(sc5c4CCCC5)C3=O)c2CO)cc(Nc2ccncn2)c1=O` [2b] it is 87 nM.

Consider `Cn1cc(-c2cccc(N3Cc4cc(C(C)(C)C)ccc4C3=O)c2CO)cc(Nc2ccncn2)c1=O` [compound 12], for which the IC50 turned out to be 1200 nM.
